# According to patent US9045481B2 (priority 2012, dated 2015):
# Experiment: CNS penetration across the blood brain barrier
# Type: in vivo, mice
# Experimental: Mice are dosed with compounds. Brain to blood ratios are determined by HPLC and LC/MS/MS analysis following oral administration of the test compounds in mice.
substance,measurement,value
Ibogaine,Crossing of the BBB / concentration in brain,cross the BBB and reach micromolar concentrations in brain
